{"sequences": {"note": "The chains behind the UniProt entries cited, without tags or fusion partners. Where a name states a change or a piece, a line headed by the entry shows the natural chain unless it says otherwise.", "UniProt P08922": "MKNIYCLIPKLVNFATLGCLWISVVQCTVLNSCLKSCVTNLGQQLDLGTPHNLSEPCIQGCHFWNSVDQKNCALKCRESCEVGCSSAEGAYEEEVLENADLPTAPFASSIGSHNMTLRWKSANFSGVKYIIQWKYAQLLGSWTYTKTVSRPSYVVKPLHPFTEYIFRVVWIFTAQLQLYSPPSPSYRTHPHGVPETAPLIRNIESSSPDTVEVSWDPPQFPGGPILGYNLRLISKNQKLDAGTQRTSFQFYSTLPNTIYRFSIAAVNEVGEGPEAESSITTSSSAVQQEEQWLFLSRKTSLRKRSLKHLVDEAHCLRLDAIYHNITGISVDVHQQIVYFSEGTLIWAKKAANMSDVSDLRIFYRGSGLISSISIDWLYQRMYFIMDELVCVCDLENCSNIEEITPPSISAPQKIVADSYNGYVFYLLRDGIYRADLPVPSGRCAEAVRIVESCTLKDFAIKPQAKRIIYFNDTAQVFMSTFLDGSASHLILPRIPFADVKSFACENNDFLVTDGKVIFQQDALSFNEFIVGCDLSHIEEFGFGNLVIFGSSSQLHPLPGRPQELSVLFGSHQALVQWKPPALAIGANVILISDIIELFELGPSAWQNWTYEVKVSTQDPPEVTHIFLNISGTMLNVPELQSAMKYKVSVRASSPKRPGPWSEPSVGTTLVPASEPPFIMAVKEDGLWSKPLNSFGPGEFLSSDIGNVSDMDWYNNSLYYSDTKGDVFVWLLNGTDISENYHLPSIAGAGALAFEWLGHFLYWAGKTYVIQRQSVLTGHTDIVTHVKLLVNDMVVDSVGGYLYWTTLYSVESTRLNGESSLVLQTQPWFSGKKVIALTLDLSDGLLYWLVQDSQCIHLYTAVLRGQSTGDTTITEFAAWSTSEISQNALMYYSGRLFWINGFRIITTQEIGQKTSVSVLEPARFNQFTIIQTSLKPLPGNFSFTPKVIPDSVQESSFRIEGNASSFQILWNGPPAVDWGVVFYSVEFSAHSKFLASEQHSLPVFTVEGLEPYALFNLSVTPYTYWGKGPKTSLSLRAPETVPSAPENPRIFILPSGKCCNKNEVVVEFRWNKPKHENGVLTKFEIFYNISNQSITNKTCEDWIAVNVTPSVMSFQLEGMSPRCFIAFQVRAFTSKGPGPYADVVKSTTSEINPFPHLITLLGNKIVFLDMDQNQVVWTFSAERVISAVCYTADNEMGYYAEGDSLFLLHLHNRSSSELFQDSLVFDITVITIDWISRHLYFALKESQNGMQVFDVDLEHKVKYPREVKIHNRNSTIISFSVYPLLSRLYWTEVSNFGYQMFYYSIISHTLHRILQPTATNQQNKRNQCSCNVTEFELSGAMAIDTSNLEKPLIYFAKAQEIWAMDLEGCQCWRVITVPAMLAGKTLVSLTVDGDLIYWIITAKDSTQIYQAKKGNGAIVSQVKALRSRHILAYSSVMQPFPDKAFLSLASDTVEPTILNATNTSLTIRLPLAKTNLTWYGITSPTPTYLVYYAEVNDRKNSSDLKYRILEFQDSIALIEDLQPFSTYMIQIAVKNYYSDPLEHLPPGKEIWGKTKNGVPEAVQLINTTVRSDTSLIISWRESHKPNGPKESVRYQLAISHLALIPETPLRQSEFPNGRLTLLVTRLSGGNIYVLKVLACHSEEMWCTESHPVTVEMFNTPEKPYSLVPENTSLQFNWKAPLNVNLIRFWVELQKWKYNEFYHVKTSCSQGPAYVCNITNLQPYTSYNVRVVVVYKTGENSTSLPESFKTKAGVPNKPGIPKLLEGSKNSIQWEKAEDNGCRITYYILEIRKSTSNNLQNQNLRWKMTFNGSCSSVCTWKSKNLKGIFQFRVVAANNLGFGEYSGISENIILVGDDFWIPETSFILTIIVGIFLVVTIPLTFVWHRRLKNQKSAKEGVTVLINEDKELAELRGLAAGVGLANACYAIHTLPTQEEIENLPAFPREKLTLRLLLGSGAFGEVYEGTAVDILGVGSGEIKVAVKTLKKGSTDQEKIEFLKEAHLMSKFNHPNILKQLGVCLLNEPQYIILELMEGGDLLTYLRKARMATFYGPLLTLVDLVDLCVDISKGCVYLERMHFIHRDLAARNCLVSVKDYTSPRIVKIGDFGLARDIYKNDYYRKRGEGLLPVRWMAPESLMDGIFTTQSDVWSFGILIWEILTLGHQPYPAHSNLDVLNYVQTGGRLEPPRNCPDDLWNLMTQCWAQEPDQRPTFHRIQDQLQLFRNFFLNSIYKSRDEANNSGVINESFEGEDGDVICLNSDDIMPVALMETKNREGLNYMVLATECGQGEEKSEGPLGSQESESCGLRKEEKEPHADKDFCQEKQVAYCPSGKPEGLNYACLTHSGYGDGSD", "UniProt Q96BR1": "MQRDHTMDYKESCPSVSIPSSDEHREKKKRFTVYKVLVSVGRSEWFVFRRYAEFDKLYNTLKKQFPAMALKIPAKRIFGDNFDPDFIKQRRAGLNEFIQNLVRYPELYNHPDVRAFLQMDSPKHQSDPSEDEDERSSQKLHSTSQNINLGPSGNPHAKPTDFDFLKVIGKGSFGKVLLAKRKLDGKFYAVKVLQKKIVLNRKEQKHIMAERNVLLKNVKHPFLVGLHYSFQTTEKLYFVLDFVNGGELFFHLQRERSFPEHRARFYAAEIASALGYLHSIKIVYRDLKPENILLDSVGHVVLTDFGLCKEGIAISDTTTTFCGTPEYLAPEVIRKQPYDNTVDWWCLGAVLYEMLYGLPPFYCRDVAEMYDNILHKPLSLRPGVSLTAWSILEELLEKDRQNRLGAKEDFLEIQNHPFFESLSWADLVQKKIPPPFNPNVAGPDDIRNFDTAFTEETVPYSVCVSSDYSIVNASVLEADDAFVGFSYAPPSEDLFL", "UniProt P08069, whole entry, looked up": "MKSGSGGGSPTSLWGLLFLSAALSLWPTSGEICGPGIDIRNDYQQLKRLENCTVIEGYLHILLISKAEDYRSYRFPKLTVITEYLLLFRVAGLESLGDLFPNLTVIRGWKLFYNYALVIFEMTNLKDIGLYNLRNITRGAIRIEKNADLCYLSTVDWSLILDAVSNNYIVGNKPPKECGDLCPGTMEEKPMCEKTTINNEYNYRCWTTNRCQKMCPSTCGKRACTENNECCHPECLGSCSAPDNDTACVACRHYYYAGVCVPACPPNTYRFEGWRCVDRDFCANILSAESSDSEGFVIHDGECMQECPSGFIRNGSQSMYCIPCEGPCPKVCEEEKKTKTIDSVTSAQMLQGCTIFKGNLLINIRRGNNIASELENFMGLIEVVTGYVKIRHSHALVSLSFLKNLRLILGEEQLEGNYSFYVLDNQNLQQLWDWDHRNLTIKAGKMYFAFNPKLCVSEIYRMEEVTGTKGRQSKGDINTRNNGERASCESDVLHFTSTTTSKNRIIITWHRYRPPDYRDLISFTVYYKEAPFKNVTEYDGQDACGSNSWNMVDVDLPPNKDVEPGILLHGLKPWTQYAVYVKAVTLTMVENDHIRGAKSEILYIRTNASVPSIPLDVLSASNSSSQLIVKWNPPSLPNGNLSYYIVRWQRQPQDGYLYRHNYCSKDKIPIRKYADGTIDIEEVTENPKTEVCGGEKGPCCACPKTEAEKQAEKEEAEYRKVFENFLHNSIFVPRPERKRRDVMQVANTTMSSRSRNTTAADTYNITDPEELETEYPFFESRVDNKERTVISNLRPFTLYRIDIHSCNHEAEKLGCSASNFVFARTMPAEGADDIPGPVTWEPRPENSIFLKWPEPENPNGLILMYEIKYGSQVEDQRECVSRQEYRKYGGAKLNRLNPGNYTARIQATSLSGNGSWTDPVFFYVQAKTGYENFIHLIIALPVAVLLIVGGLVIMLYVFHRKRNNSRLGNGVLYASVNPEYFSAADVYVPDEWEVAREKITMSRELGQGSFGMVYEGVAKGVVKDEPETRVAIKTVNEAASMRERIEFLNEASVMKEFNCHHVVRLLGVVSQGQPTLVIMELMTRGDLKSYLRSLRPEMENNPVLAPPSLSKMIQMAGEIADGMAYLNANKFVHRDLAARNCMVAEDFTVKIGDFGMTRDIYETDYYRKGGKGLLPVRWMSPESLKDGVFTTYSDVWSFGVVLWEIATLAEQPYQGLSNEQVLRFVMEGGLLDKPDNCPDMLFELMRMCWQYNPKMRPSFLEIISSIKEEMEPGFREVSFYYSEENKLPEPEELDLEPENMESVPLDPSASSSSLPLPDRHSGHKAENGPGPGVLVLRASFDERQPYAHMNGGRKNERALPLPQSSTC", "UniProt O14920": "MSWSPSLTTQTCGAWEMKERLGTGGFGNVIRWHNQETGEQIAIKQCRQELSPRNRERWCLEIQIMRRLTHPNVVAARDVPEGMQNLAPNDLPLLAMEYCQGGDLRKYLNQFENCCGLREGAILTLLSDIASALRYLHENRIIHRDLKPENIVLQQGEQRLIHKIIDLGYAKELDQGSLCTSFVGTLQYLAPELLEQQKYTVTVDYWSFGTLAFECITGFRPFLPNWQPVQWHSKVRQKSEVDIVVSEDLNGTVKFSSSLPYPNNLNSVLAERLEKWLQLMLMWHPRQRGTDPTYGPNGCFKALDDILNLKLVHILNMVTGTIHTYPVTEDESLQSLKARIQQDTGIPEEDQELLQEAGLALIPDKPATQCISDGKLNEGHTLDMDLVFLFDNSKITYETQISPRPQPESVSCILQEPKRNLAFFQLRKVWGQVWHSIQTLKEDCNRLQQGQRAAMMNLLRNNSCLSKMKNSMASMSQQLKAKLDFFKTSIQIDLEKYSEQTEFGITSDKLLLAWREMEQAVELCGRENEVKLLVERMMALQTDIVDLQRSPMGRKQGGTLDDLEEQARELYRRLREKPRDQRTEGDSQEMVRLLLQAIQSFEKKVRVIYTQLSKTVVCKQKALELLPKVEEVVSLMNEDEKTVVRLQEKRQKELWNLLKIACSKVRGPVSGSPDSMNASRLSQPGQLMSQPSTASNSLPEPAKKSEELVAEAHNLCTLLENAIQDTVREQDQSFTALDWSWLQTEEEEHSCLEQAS", "UniProt Q08881": "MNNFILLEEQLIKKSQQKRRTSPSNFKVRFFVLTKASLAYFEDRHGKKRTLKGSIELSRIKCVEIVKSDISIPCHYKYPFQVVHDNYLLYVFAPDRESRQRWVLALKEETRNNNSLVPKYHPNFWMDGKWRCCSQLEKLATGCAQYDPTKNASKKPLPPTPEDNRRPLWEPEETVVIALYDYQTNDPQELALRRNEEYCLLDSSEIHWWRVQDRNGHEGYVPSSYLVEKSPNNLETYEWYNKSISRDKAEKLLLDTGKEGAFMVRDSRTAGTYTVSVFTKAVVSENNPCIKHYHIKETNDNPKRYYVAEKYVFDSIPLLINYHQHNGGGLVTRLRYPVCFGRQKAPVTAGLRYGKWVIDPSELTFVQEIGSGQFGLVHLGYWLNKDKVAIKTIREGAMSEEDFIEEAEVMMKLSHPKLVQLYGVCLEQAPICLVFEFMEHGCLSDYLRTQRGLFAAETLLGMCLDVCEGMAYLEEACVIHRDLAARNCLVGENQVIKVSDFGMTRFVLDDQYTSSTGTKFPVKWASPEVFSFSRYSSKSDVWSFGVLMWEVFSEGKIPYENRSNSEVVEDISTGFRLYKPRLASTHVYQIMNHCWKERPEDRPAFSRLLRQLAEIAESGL", "UniProt Q14680": "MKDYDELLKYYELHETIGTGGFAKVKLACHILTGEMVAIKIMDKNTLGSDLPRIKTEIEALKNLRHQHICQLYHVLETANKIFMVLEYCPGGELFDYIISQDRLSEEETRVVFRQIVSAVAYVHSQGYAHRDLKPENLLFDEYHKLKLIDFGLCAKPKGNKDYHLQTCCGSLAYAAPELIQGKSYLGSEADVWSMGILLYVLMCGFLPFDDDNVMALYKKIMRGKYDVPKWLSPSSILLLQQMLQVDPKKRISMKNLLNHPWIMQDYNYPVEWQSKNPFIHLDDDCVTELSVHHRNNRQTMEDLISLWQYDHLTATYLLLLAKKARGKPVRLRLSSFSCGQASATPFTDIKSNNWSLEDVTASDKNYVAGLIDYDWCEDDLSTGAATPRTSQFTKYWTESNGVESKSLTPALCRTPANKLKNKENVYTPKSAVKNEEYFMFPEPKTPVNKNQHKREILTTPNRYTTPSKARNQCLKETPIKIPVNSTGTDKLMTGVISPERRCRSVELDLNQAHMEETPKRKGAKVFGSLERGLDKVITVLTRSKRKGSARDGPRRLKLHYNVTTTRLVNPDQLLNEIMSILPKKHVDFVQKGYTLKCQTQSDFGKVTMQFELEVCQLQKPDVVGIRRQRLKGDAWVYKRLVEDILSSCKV"}, "source": "ChEMBL document CHEMBL2218924", "about": "“A broad activity screen in support of a chemogenomic map for kinase signalling research and drug discovery” (Biochem J, 2013)", "key": {"[1]": {"target": "Proto-oncogene tyrosine-protein kinase ROS (Homo sapiens) (UniProt P08922)", "details": "at 1 µM"}, "[2]": {"target": "Proto-oncogene tyrosine-protein kinase ROS (Homo sapiens) (UniProt P08922)", "details": "at 10 µM"}, "[3]": {"target": "T1, Tyrosine-protein kinase receptor TYRO3 (Homo sapiens) (UniProt Q06418)", "T1 sequence (whole entry)": "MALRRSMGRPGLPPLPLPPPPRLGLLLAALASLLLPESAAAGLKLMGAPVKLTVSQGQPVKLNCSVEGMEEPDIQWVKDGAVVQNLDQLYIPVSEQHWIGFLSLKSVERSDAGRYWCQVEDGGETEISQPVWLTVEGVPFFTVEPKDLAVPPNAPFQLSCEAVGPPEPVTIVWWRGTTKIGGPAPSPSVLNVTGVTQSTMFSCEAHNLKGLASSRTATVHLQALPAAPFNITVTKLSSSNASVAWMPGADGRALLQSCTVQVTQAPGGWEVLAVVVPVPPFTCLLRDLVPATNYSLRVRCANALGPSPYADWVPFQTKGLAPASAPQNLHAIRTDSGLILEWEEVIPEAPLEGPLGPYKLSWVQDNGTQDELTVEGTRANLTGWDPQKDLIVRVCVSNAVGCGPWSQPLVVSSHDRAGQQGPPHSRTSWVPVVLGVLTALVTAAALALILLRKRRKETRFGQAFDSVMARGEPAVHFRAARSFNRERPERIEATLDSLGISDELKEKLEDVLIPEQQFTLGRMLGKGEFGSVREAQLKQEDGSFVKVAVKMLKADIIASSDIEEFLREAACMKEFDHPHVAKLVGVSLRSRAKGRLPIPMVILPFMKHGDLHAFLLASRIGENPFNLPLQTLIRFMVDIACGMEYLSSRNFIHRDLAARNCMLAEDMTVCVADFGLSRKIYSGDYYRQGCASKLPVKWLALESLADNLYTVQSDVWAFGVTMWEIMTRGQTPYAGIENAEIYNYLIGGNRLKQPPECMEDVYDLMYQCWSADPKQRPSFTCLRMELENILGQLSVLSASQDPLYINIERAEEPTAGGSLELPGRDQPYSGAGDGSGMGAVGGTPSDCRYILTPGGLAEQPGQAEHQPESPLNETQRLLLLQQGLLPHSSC", "details": "at 1 µM"}, "[4]": {"target": "T1, Tyrosine-protein kinase receptor TYRO3 (Homo sapiens)", "details": "at 10 µM"}, "[5]": {"target": "Mitogen-activated protein kinase 11 (Homo sapiens) (UniProt Q15759)", "details": "at 1 µM"}, "[6]": {"target": "Mitogen-activated protein kinase 11 (Homo sapiens) (UniProt Q15759)", "details": "at 10 µM"}, "[7]": {"target": "T2, Mitogen-activated protein kinase 13 (Homo sapiens) (UniProt O15264)", "T2 sequence (whole entry)": "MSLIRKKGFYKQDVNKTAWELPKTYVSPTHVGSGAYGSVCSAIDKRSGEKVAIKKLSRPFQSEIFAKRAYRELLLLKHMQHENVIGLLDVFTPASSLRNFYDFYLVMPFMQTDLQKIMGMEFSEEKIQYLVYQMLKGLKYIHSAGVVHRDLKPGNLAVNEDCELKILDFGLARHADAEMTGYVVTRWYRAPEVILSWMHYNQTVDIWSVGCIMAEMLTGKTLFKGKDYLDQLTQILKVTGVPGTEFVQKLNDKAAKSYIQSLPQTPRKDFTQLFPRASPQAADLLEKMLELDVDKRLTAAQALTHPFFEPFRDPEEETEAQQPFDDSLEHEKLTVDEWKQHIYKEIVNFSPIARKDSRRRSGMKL", "details": "at 10 µM"}, "[8]": {"target": "Serine/threonine-protein kinase Sgk3 (Homo sapiens) (UniProt Q96BR1)", "details": "at 1 µM"}, "[9]": {"target": "SRSF protein kinase 1 (Homo sapiens) (UniProt Q96SB4)", "details": "at 1 µM"}, "[10]": {"target": "Serine/threonine-protein kinase TAO1 (Homo sapiens) (UniProt Q7L7X3)", "details": "at 1 µM"}, "[11]": {"target": "T3, TGF-beta receptor type-1 (Homo sapiens) (UniProt P36897)", "T3 sequence (whole entry)": "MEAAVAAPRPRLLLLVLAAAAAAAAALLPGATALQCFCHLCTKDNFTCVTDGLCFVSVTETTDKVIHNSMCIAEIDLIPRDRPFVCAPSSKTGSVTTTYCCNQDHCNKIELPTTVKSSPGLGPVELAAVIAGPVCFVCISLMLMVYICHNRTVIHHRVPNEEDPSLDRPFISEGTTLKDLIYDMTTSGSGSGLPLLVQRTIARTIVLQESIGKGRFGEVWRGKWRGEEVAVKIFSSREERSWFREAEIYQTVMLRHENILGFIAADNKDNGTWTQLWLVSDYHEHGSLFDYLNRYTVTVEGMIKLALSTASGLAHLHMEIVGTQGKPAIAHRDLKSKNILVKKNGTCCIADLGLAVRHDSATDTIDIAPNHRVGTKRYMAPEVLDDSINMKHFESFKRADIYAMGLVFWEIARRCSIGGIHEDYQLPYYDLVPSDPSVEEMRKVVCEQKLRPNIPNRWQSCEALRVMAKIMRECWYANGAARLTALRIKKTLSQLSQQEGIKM", "details": "at 10 µM"}, "[12]": {"target": "Insulin-like growth factor 1 receptor (Homo sapiens) (UniProt P08069)", "details": "at 10 µM"}, "[13]": {"target": "Inhibitor of nuclear factor kappa-B kinase subunit beta (Homo sapiens) (UniProt O14920)", "details": "at 1 µM"}, "[14]": {"target": "Inhibitor of nuclear factor kappa-B kinase subunit beta (Homo sapiens) (UniProt O14920)", "details": "at 10 µM"}, "[15]": {"target": "Tyrosine-protein kinase ITK/TSK (Homo sapiens) (UniProt Q08881)", "details": "at 1 µM"}, "[16]": {"target": "Mitogen-activated protein kinase 10 (Homo sapiens) (UniProt P53779)", "details": "at 1 µM"}, "[17]": {"target": "Tyrosine-protein kinase Lck (Homo sapiens) (UniProt P06239)", "details": "at 1 µM"}, "[18]": {"target": "Tyrosine-protein kinase Lyn (Homo sapiens) (UniProt P07948)", "details": "at 1 µM"}, "[19]": {"target": "Mitogen-activated protein kinase 3 (Homo sapiens) (UniProt P27361)", "details": "at 1 µM"}, "[20]": {"target": "MAP kinase-activated protein kinase 2 (Homo sapiens) (UniProt P49137)", "details": "at 10 µM"}, "[21]": {"target": "MAP kinase-activated protein kinase 3 (Homo sapiens) (UniProt Q16644)", "details": "at 10 µM"}, "[22]": {"target": "Maternal embryonic leucine zipper kinase (Homo sapiens) (UniProt Q14680)", "details": "at 1 µM"}, "[23]": {"target": "T4, Dual specificity mitogen-activated protein kinase kinase 6 (Homo sapiens) (UniProt P52564)", "T4 sequence (whole entry)": "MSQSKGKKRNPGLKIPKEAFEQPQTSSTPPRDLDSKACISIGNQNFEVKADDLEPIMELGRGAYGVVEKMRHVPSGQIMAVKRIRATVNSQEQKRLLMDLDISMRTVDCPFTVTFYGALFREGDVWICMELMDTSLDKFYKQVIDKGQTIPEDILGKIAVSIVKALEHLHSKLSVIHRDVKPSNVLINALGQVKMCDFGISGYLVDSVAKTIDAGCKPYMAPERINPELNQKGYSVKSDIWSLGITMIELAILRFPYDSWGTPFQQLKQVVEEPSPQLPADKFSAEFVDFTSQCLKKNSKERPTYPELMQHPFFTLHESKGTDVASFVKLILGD", "details": "at 1 µM"}, "[24]": {"target": "T4, Dual specificity mitogen-activated protein kinase kinase 6 (Homo sapiens)", "details": "at 10 µM"}, "[25]": {"target": "Serine/threonine-protein kinase MRCK alpha (Homo sapiens) (UniProt Q5VT25)", "details": "at 1 µM"}, "[26]": {"target": "Serine/threonine-protein kinase MRCK alpha (Homo sapiens) (UniProt Q5VT25)", "details": "at 10 µM"}, "[27]": {"target": "Tyrosine-protein kinase Mer (Homo sapiens) (UniProt Q12866)", "details": "at 1 µM"}}, "note": "For part of these data: What follows is the remainder of the data, with few or none of the strong results. The entries are a selection whose mix differs from that of the whole data set."}
{"smiles": "O=C1NC(=O)C(c2cn(CCCn3ccnc3)c3ccccc23)=C1Nc1ccccc1", "values": [{"measurement": "residual activity", "setting": "[1]", "result": 91, "unit": "%"}, {"measurement": "residual activity", "setting": "[2]", "result": 86, "unit": "%"}, {"measurement": "residual activity", "setting": "[3]", "result": 95, "unit": "%"}, {"measurement": "residual activity", "setting": "[4]", "result": 101, "unit": "%"}, {"measurement": "residual activity", "setting": "[5]", "result": 97, "unit": "%"}, {"measurement": "residual activity", "setting": "[6]", "result": 102, "unit": "%"}, {"measurement": "residual activity", "setting": "[7]", "result": 91, "unit": "%"}, {"measurement": "residual activity", "setting": "[8]", "result": 88, "unit": "%"}, {"measurement": "residual activity", "setting": "[9]", "result": 99, "unit": "%"}, {"measurement": "residual activity", "setting": "[10]", "result": 87, "unit": "%"}, {"measurement": "residual activity", "setting": "[11]", "result": 83, "unit": "%"}, {"measurement": "residual activity", "setting": "[12]", "result": 81, "unit": "%"}, {"measurement": "residual activity", "setting": "[13]", "result": 95, "unit": "%"}, {"measurement": "residual activity", "setting": "[14]", "result": 95, "unit": "%"}, {"measurement": "residual activity", "setting": "[15]", "result": 97, "unit": "%"}, {"measurement": "residual activity", "setting": "[16]", "result": 84, "unit": "%"}, {"measurement": "residual activity", "setting": "[17]", "result": 102, "unit": "%"}, {"measurement": "residual activity", "setting": "[18]", "result": 86, "unit": "%"}, {"measurement": "residual activity", "setting": "[19]", "result": 85, "unit": "%"}, {"measurement": "residual activity", "setting": "[20]", "result": 84, "unit": "%"}, {"measurement": "residual activity", "setting": "[21]", "result": 84, "unit": "%"}, {"measurement": "residual activity", "setting": "[22]", "result": 89, "unit": "%"}, {"measurement": "residual activity", "setting": "[23]", "result": 90, "unit": "%"}, {"measurement": "residual activity", "setting": "[24]", "result": 85, "unit": "%"}, {"measurement": "residual activity", "setting": "[25]", "result": 99, "unit": "%"}, {"measurement": "residual activity", "setting": "[26]", "result": 89, "unit": "%"}, {"measurement": "residual activity", "setting": "[27]", "result": 95, "unit": "%"}]}
